Literature values in patent US11583515B2, “Composition and method for rapidly inducing an endogenous ketosis” (priority 2015, dated 2023).

Details: endogenously synthesized

## insulin
  bioactive half-life: 5 to 10 min
